Broadly, the pIC50 is the IC50 on a negative log10 scale, so that one unit is a factor of ten.

By UniProt entry, the sequences of proteins in these tests, tags left out.
UniProt P33261, whole entry: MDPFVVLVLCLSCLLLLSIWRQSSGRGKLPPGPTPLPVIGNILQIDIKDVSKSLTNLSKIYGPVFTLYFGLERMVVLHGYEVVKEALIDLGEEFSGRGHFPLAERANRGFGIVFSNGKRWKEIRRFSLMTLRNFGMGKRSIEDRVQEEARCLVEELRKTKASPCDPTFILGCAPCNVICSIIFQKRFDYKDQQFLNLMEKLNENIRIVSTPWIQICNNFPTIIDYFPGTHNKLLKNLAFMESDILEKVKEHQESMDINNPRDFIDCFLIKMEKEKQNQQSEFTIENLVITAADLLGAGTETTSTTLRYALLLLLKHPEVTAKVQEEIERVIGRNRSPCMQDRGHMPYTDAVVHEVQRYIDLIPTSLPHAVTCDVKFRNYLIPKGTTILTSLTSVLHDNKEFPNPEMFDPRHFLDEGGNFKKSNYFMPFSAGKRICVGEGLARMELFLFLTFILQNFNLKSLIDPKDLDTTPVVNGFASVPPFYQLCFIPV

pIC50: −log10 of the molar value. A value given as a limit tells only on which side of the number the result lay.

This assay addresses recombinant human CYP2C19 (Homo sapiens, UniProt P33261). Put plainly: P450-Glo bioluminescent CYP450 inhibition assay. It is filed as in vitro ADME. Particulars: CYP2C19 inhibitory potency class, class by IC50.

`Cc1c(C)c2c(c(C)c1O)CCC(C)(COc1ccc(CC3SC(=O)NC3=O)cc1)O2` (stereo not shown) [Troglitazone, troglitazone, reference compound]: the negative logarithm of the IC50 (pIC50) is more than 5.00.

Values taken from paper PMC10413907 (Journal of Evidence-based Integrative Medicine, 2023).
